Data as given in patent US9849116B2 (KNOPP BIOSCIENCES LLC, priority 2008, dated 2017).

Experiments:
minipigs = conditions: chronic dosing, dose reduced to 50 mg/kg at month 2
clinical = conditions: human, plasma, po, 50 mg

CCCN[C@@H]1CCc2nc(N)sc2C1 [(R)-pramipexole, (6R)-4,5,6,7-tetrahydro-N6-propyl-2,6-benzothiazole-diamine]
mortality at the 75 mg/kg level (minipigs): mortalities
half-life (clinical): 6.34 ± 1.31 h
